Source: publication PMC8508734 (International Journal of Molecular Sciences, 2021)

The chains behind the UniProt entries cited, without tags or fusion partners. Where a name states a change or a piece, a line headed by the entry shows the natural chain unless it says otherwise.
UniProt Q9QYN8: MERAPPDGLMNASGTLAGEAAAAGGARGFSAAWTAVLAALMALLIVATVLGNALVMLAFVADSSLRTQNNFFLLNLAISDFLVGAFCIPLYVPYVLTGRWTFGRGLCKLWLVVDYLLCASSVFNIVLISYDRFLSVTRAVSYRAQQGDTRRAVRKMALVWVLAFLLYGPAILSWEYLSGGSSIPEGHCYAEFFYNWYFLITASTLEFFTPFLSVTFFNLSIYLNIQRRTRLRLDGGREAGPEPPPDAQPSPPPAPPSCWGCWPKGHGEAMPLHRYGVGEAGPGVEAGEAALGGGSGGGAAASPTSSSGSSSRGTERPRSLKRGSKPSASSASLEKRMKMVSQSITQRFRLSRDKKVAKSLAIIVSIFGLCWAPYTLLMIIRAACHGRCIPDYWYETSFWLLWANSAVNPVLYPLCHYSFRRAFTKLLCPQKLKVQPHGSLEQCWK

Target: histamine H3 receptor (H3R) (Rattus norvegicus, UniProt Q9QYN8)
Test: cell-based
Set-up: gene Hrh3

N=C(N)SCCc1cnc[nH]1 [imetit]
EC50: 4 ± 2 nM
